Reference: patent US20240350536A1, “Application of Bi-Phenols in Anti-ototoxicity and Hearing Protection” (Northwestern University, priority 2017, published 2024)

The chains behind the UniProt entries cited, without tags or fusion partners.
UniProt Q9NTG7, whole entry, species assumed: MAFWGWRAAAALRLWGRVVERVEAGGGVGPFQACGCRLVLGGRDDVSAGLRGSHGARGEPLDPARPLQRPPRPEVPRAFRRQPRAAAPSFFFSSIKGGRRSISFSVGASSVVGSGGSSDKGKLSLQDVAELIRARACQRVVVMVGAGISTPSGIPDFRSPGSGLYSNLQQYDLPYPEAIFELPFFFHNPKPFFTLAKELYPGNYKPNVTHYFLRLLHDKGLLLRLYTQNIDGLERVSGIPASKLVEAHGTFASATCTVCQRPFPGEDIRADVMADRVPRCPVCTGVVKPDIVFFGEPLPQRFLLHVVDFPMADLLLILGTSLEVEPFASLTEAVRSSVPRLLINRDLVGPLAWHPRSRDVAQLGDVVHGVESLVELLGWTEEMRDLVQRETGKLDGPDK

Tests used:
mice = assay: Auditory Brainstem Response (ABR) threshold shift in cisplatin-treated mice; assay type: in vivo; conditions: summary of ABR study
[1] = test system: outer hair cell (OHC) function; assay type: in vivo, mice; conditions: cisplatin 15 mg/kg
Protocol: FIG. 12A-12E. HNK protection against cisplatin-induced changes of DPOAE amplitude. […] The DPOAE shift, normalized to Day 0, of all the groups are plotted in (FIG. 12B to FIG. 12E). […] The results of the 2 animals in Cis 15 mg/kg group on Day 14 were both plotted in (FIG. 12B) as the dashed lines and open circles. […].
Distortion product oto-acoustic emissions (DPOAEs), which are an indication of outer hair cell (OHC) function, were measured in a separate series of experiments to estimate OHC protection by honokiol (HNK). (See FIG. 12A-12E). […] (See FIGS. 12D and 12E). After pre-treatment with HNK at a dosage of 10 mg/kg, the DPOAE shift was observed only at frequencies of 27 kHz and higher with a much smaller amplitude. (See FIG. 12D).

SIRT3 = SIRT3 (Homo sapiens, UniProt Q9NTG7); conditions: literature statement; cited from earlier work

## C=CCc1ccc(O)c(-c2ccc(O)c(CC=C)c2)c1 [honokiol, 2-(4-hydroxy-3-prop-2-enyl-phenyl)-4-prop-2-enyl-phenol]
mice
  protection of hearing threshold shift induced by cisplatin: almost completely protects
[1]; HNK 20 mg/kg
  DPOAE shift: No DPOAE shift
[1]; HNK pre-treatment 10 mg/kg, much smaller amplitude
  frequencies at which DPOAE shift was observed: ≥ 27 kHz
SIRT3
  activation of SIRT3: directly activates SIRT3
